# According to patent US20230202975A1 (Recordati Industria Chimica e Farmaceutica S.p.A., priority 2021, published 2023):
# Values joined by “and” are separate entries in the source; they are usually repeats but may differ in a detail not shown here. Equal entries are not always repeated. Where two headings read alike, the source gives them in different places.
# Experiments:
# [1] = Particle size distribution (laser particle size analyser, Ph. Eur. 2.9.31); format: physicochemical; conditions: media on 3 batches; sieved 600 microns, no micronization
# Description: Particle size distribution was evaluated in line with European Pharmacopeia 2.9.31 with the instrument and according to sample preparation and test conditions reported in the following Table 3: […]
# [2] = 40±2° C., 75±5% R.H.
# [3] = DVS, 25° C.
# [4] = 25±2° C., 60±5% R.H., 12 months
# [5] = 25±2° C., 60±5% R.H., 18 months
# [6] = 25±2° C., 60±5% R.H., 24 months
# [7] = 25±2° C., 60±5% R.H., 36 months
substance,measurement,setting,value
Cysteamine Bitartrate [Example 4],Average particle size by volume D50,[1],D50: 28.4 μm
same,Average particle size by volume D90,[1],D90: 102.5 μm
same,"HPLC Related Substances %: 2,2-dimethylthiazolidine","25±2° C., 60±5% R.H., 0 months",<0.02%
same,HPLC Related Substances %: Cystamine,"25±2° C., 60±5% R.H., 0 months",0.08% and 0.05% and 0.09%
same,HPLC Related Substances %: Di-Cysteamine acetonide,"25±2° C., 60±5% R.H., 0 months",<0.02%
same,HPLC Related Substances %: Total of impurities,"25±2° C., 60±5% R.H., 0 months",0.08% and 0.05% and 0.09%
same,Volumetric Assay (on dried basis) %,"25±2° C., 60±5% R.H., 0 months",99.8% and 100.2% and 99.7%
same,"HPLC Related Substances %: 2,2-dimethylthiazolidine","25±2° C., 60±5% R.H., 6 months",<0.02%
same,HPLC Related Substances %: Cystamine,"25±2° C., 60±5% R.H., 6 months",0.10% and 0.09%
same,HPLC Related Substances %: Di-Cysteamine acetonide,"25±2° C., 60±5% R.H., 6 months",<0.02%
same,HPLC Related Substances %: Other impurities,"25±2° C., 60±5% R.H., 6 months",<0.02%
same,HPLC Related Substances %: Total of impurities,"25±2° C., 60±5% R.H., 6 months",0.10% and 0.09%
same,Loss on drying,"25±2° C., 60±5% R.H., 6 months",0.07% and 0.15% and 0.14%
same,Volumetric Assay (on dried basis) %,"25±2° C., 60±5% R.H., 6 months",99.6% and 99.9%
same,"HPLC Related Substances %: 2,2-dimethylthiazolidine",[4],<0.02%
same,HPLC Related Substances %: Cystamine,[4],0.11% and 0.09%
same,HPLC Related Substances %: Di-Cysteamine acetonide,[4],<0.02%
same,HPLC Related Substances %: Other impurities,[4],<0.02%
same,HPLC Related Substances %: Total of impurities,[4],0.11% and 0.09%
same,Loss on drying,[4],0.20% and 0.25% and 0.19%
same,Volumetric Assay (on dried basis) %,[4],99.9% and 99.4% and 99.5%
same,"HPLC Related Substances %: 2,2-dimethylthiazolidine",[5],<0.02%
same,HPLC Related Substances %: Cystamine,[5],0.12% and 0.11%
same,HPLC Related Substances %: Di-Cysteamine acetonide,[5],<0.02%
same,HPLC Related Substances %: Other impurities,[5],<0.02%
same,HPLC Related Substances %: Total of impurities,[5],0.12% and 0.11%
same,Loss on drying,[5],0.14% and 0.07%
same,Volumetric Assay (on dried basis) %,[5],99.8% and 100.0% and 99.7%
same,"HPLC Related Substances %: 2,2-dimethylthiazolidine",[6],<0.02%
same,HPLC Related Substances %: Cystamine,[6],0.13% and 0.12%
same,HPLC Related Substances %: Di-Cysteamine acetonide,[6],<0.02% and 0.02%
same,HPLC Related Substances %: Other impurities,[6],<0.02%
same,HPLC Related Substances %: Total of impurities,[6],0.13% and 0.12%
same,Loss on drying,[6],0.30% and 0.27% and 0.38%
same,Volumetric Assay (on dried basis) %,[6],99.8% and 99.6% and 99.7%
same,Volumetric Assay (on anhydrous) %,[7],100.5% and 100.2% and 100.4%
same,Water Content (K.F.) %,[7],0.81% and 0.47% and 0.67%
same,Stability duration,long term storage,≥ 36 months
same,"HPLC Related Substances %: 2,2-dimethylthiazolidine",[2]; 0 months,<0.02%
same,HPLC Related Substances %: Cystamine,[2]; 0 months,0.08% and 0.05% and 0.09%
same,HPLC Related Substances %: Di-Cysteamine acetonide,[2]; 0 months,<0.02%
same,HPLC Related Substances %: Other impurities,[2]; 0 months,<0.02% and <0.05%
same,HPLC Related Substances %: Total of impurities,[2]; 0 months,0.08% and 0.05% and 0.09%
same,Volumetric Assay (on anhydrous) %,[2]; 0 months,99.8% and 100.2%
same,"HPLC Related Substances %: 2,2-dimethylthiazolidine",[2]; 3 months,<0.02%
same,HPLC Related Substances %: Cystamine,[2]; 3 months,0.14% and 0.11% and 0.09%
same,HPLC Related Substances %: Di-Cysteamine acetonide,[2]; 3 months,<0.02%
same,HPLC Related Substances %: Other impurities,[2]; 3 months,<0.05% and <0.02%
same,HPLC Related Substances %: Total of impurities,[2]; 3 months,0.14% and 0.11% and 0.09%
same,Loss on drying,[2]; 3 months,0.04% and 0.03% and 0.02%
same,Volumetric Assay (on anhydrous) %,[2]; 3 months,99.5% and 99.4%
same,"HPLC Related Substances %: 2,2-dimethylthiazolidine",[2]; 6 months,<0.02%
same,HPLC Related Substances %: Cystamine,[2]; 6 months,0.20% and 0.10% and 0.13%
same,HPLC Related Substances %: Di-Cysteamine acetonide,[2]; 6 months,<0.02%
same,HPLC Related Substances %: Other impurities,[2]; 6 months,<0.05% and <0.02%
same,HPLC Related Substances %: Total of impurities,[2]; 6 months,0.20% and 0.10% and 0.13%
same,Volumetric Assay (on anhydrous) %,[2]; 6 months,99.8% and 99.7% and 99.6%
same,RH at which the hydration process (conversion into the hydrate form) started,[3],25 % RH
same,RH at which the hydration process finished,[3],35 % RH
same,water gained during hydration,[3]; about 1 mol of water,7.5 % w/w
